# Target: Aplysia californica acetylcholine binding protein (Ac-AChBP) (Aplysia californica)
# Test: crystal structure
substance,measurement,value
Aplysia californica acetylcholine binding protein (Ac-AChBP) (natural protein),stoichiometry N,5

# Reference: PMC5563285 (Protein & Cell, 2017)
